# Values of other authors, collected in US20040142910A1, “Sulfonated styrene copolymers for medical uses” (Aegis Biosciences LLC, priority 2002, published 2004).
# Details: in vivo; cited from earlier work
compound,measurement,value
Cn1c(=O)c2[nH]cnc2n(C)c1=O [theophylline],toxic levels (blood),approximately 20 µg/ml
